Test results as given in patent US12528818B2, “Compositions and methods for inhibition of RAS” (Leidos Biomedical Research, Inc., priority 2021, dated 2026).

Columns and labels:
[1] = target: GppNHp-loaded KRAS4b (amino acids 1-169) G12C/C118S protein (Homo sapiens, UniProt P01116, C118S/G12C); assay: Covalent cysteine 12 modification by MALDI-TOF MS, GppNHp-loaded KRAS G12C; assay type: biochemical; details: 15 minutes reaction time, compound 95 or later using 1 μM proteins
[2] = target: GDP-loaded KRAS4b (amino acids 1-169) G12C/C118S protein (Homo sapiens, UniProt P01116, C118S/G12C); assay: Covalent cysteine 12 modification by MALDI-TOF MS, GDP-loaded KRAS G12C; assay type: biochemical; details: 15 minutes reaction time, compound 95 or later using 1 μM proteins
[3] = target: T1, GTP-loaded KRAS4b (amino acids 1-169) G12C/C118S protein (Homo sapiens, UniProt P01116, C118S/G12C); assay: Covalent cysteine 12 modification by MALDI-TOF MS, GTP-loaded KRAS G12C; assay type: biochemical; details: 15 minutes reaction time, compound 95 or later using 1 μM proteins
T1 construct: KRAS4b (amino acids 1-169) G12C/C118S protein; made in house

[4] = target: Avi-KRAS G12C (1-169) GppNHp/RAF1 RBD-3xFLAG (52-151) (Homo sapiens, UniProt P01116, G12C); assay: biochemical; details: Raf1-GppNHp-KRAS G12C disruption, Raf1 RBD-KRAS G12C-GppNHp disruption assay IC50

| Structure (SMILES) | GppNHp-KRAS G12C percent of modification [1] | GDP-KRAS G12C percent of modification [2] | GTP-KRAS G12C percent of modification [3] | IC50 [4] [nM] |
| --- | --- | --- | --- | --- |
| C=CC(=O)N1CCC(N(CC)c2nc(OC[C@@]34CCCN3C[C@H](F)C4)nc3c(F)c(-c4ccc(F)c5sc(N)c(C#N)c45)ccc23)[C@H]1COC (stereo partly drawn) [Compound 412] | A (percent of modification ≥70%) | A (percent of modification ≥70%) | A (percent of modification ≥70%) | < 500 |
| C=CC(=O)N1CCC(N(C)c2nc(OC[C@@H]3CCCN3C)nc3cc(-c4ccc(F)c5sc(N)c(C#N)c45)c(C#N)cc23)[C@H]1COC (stereo partly drawn) [Compound 455] | A (percent of modification ≥70%) | A (percent of modification ≥70%) | A (percent of modification ≥70%) | < 500 |
| C=CC(=O)N1CCC(N(CC)c2nc(OC[C@@H]3CCCN3C)nc3cc(-c4ccc(F)c5sc(N)c(C#N)c45)c(C#N)cc23)[C@H]1COC (stereo partly drawn) [Compound 470] | B (50≤percent of modification <70%) | A (percent of modification ≥70%) | C (10%≤percent of modification <50%) | < 500 |
| C=CC(=O)N1C[C@H](C)N(c2nc(OC[C@@]34CCCN3C[C@H](F)C4)nc3c(Cl)c(-c4ccc(F)c5sc(N)nc45)c(C(F)(F)F)cc23)C[C@H]1C [Compound 295, 1-((2R,5S)-4-(7-(2-amino-7-fluorobenzo[d]thiazol-4-yl)-8-chloro-2-(((2R,7aS)-2-fluorotetrahydro-1H-pyrrolizin-7a(5H)-yl)methoxy)-6-(trifluoromethyl)quinazolin-4-yl)-2,5-dimethylpiperazin-1-yl)prop-2-en-1-one] | C (10%≤percent of modification <50%) | B (50≤percent of modification <70%) | D (percent of modification <10%) | < 500 |
| C=CC(=O)N1C[C@@H](F)[C@@H](N(C)c2nc(OC[C@@H]3C[C@@H](OC)CN3C)nc3cc(-c4ccc(F)c5sc(N)c(C#N)c45)c(C(F)(F)F)cc23)C1 [Compound 361] | B (50≤percent of modification <70%) | A (percent of modification ≥70%) | B (50≤percent of modification <70%) | < 500 |
| C=CC(=O)N1C[C@H](C)N(c2nc(OC[C@@]34CCCN3C[C@H](F)C4)nc3c(F)c(-c4ccc(F)c5sc(N)c(C#N)c45)c(C#N)cc23)C[C@H]1C [Compound 324, 4-((2S,5R)-4-acryloyl-2,5-dimethylpiperazin-1-yl)-7-(2-amino-3-cyano-7-fluorobenzo[b]thiophen-4-yl)-8-fluoro-2-(((2R,7aS)-2-fluorotetrahydro-1H-pyrrolizin-7a(5H)-yl)methoxy)quinazoline-6-carbonitrile] | A (percent of modification ≥70%) | A (percent of modification ≥70%) | C (10%≤percent of modification <50%) | < 500 |
| C=CC(=O)N1C[C@@H](F)[C@@H](N(C)c2nc(OC[C@@]34CCCN3C[C@H](F)C4)nc3c(F)c(-c4ccc(F)c5sc(N)c(C#N)c45)c(Cl)cc23)C1 [Compound 365] | A (percent of modification ≥70%) | A (percent of modification ≥70%) | B (50≤percent of modification <70%) | < 500 |
| C=CC(=O)N1C[C@@H](F)[C@@H](N(CC)c2nc(OC[C@@]34CCCN3C[C@H](F)C4)nc3cc(-c4ccc(F)c5sc(N)c(C#N)c45)ccc23)C1 [Compound 377] | A (percent of modification ≥70%) | A (percent of modification ≥70%) | B (50≤percent of modification <70%) | < 500 |
| C=CC(=O)N1CC[C@@H](N(C)c2nc(OC[C@@]34CCCN3C[C@H](F)C4)nc3c(F)c(-c4ccc(F)c5sc(N)c(C#N)c45)c(C#N)cc23)C1 [Compound 325] | A (percent of modification ≥70%) | A (percent of modification ≥70%) | A (percent of modification ≥70%) | < 500 |
| C=CC(=O)N1CC[C@@H](N(C)c2nc(OC[C@@]34CCCN3C[C@H](F)C4)nc3cc(-c4c(F)cc(F)c5sc(N)nc45)c(C(F)(F)F)cc23)C1 [Compound 305] | A (percent of modification ≥70%) | A (percent of modification ≥70%) | A (percent of modification ≥70%) | < 500 |
| C=CC(=O)N1CCC(N(CC)c2nc(OC[C@@H]3CC4(CC4)CN3C)nc3c(F)c(-c4ccc(F)c5sc(N)c(C#N)c45)c(C(F)(F)F)cc23)[C@H]1C (stereo partly drawn) [Compound 405] | B (50≤percent of modification <70%) | A (percent of modification ≥70%) | C (10%≤percent of modification <50%) | < 500 |
| C=CC(=O)N1C[C@H](C)N(c2nc(N3CC(N4CC(O)C4)C3)nc3c(F)c(-c4ccc(F)c5sc(N)c(C#N)c45)c(C(F)(F)F)cc23)C[C@H]1C [Compound 328] | C (10%≤percent of modification <50%) | C (10%≤percent of modification <50%) | D (percent of modification <10%) | < 500 |
| C=CC(=O)N1C[C@H](C)N(c2nc(OC[C@@H]3CCCN3C)nc3c(F)c(-c4ccc(F)c5sc(N)c(C#N)c45)c(C(F)(F)F)cc23)C[C@H]1C (single isomer, unassigned) [Compound 457] | D (percent of modification <10%) | D (percent of modification <10%) | D (percent of modification <10%) | > 20000 |

The remaining lines, values ahead:

| GppNHp-KRAS G12C percent of modification [1] | GDP-KRAS G12C percent of modification [2] | GTP-KRAS G12C percent of modification [3] | IC50 [4] [nM] | Structure (SMILES) |
| --- | --- | --- | --- | --- |
| C (10%≤percent of modification <50%) | C (10%≤percent of modification <50%) | C (10%≤percent of modification <50%) | < 500 | C=CC(=O)N1CC[C@@H](N(C)c2nc(N3CC(N4CC5(CC5)C4)C3)nc3c(F)c(-c4ccc(F)c5sc(N)c(C#N)c45)c(C(F)(F)F)cc23)C1 [Compound 340] |
| A (percent of modification ≥70%) | A (percent of modification ≥70%) | C (10%≤percent of modification <50%) | < 500 | C=CC(=O)N1C[C@@H](F)[C@@H](N(C)c2nc(OC[C@@H]3C[C@@H](OC)CN3C)nc3cc(-c4ccc(F)c5sc(N)nc45)c(C(F)(F)F)cc23)C1 [Compound 350] |
| B (50≤percent of modification <70%) | B (50≤percent of modification <70%) | B (50≤percent of modification <70%) | < 500 | C=CC(=O)N1CCC(N(C)c2nc(OC[C@@H]3CCCN3C)nc3c(F)c(-c4ccc(F)c5sc(N)c(C#N)c45)c(C(F)(F)F)cc23)C1COC (stereo partly drawn) [Compound 426, 4-(4-((1-acryloyl-2-(methoxymethyl)pyrrolidin-3-yl)(methyl)amino)-8-fluoro-2-(((S)-1-methylpyrrolidin-2-yl)methoxy)-6-(trifluoromethyl)quinazolin-7-yl)-2-amino-7-fluorobenzo[b]thiophene-3-carbonitrile] |
| C (10%≤percent of modification <50%) | A (percent of modification ≥70%) | C (10%≤percent of modification <50%) | < 500 | C=CC(=O)N1CC[C@@H](N(C)c2ncnc3c(F)c(-c4ccc(F)c5sc(N)c(C#N)c45)c(C(F)(F)F)cc23)C1 [Compound 383, 4-(4-(((R)-1-acryloylpyrrolidin-3-yl)(methyl)amino)-8-fluoro-6-(trifluoromethyl)quinazolin-7-yl)-2-amino-7-fluorobenzo[b]thiophene-3-carbonitrile] |
| A (percent of modification ≥70%) | A (percent of modification ≥70%) | C (10%≤percent of modification <50%) | < 500 | C=CC(=O)N1CCC(N(C)c2nc(OC[C@@H]3C[C@@H](F)CN3C)nc3cc(-c4ccc(F)c5sc(N)c(C#N)c45)c(C#N)cc23)[C@H]1COC (stereo partly drawn) [Compound 444] |
| A (percent of modification ≥70%) | A (percent of modification ≥70%) | A (percent of modification ≥70%) | < 500 | C=CC(=O)N1CC[C@@H](N(C)c2nc(OC[C@@]34CCCN3C[C@H](F)C4)nc3cc(-c4ccc(F)c5sc(N)c(C#N)c45)c(F)cc23)[C@H]1COC [Compound 391] |
| B (50≤percent of modification <70%) | B (50≤percent of modification <70%) | B (50≤percent of modification <70%) | < 500 | C=CC(=O)N1CCC(N(CC)c2nc(OC[C@@H]3CC4(CC4)CN3C)nc3c(F)c(-c4ccc(F)c5sc(N)c(C#N)c45)c(C(F)(F)F)cc23)[C@H]1COC (stereo partly drawn) [Compound 445] |
| A (percent of modification ≥70%) | A (percent of modification ≥70%) | A (percent of modification ≥70%) | < 500 | C=CC(=O)N1C[C@H](N(C)c2nc(OC[C@@]34CCCN3C[C@H](F)C4)nc3c(F)c(-c4ccc(F)c5sc(N)c(C#N)c45)ccc23)C[C@H]1C [Compound 319] |
